Measured affinities in a library of Ab-14 light chain variants

All variants were tested on one target, the spike HR2 peptide PDVDLGDISGINAS (SARS-CoV-2).

Parent: Ab-14, a human scFv built as VH, a (GGGGS)3 linker, VL. Only the CDRs of the light chain vary.
VH: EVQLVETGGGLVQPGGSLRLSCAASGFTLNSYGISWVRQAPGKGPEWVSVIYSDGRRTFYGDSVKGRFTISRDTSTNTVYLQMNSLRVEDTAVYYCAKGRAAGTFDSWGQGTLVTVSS
VL: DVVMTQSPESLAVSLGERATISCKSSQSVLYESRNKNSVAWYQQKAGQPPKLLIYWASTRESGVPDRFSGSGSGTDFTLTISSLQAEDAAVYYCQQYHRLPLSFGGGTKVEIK

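Phage display of a naive human antibody library on the peptide gave the parent. In library AAYL50, one, two or three CDR residues were substituted; doubles and triples were drawn at random. The assay is AlphaSeq: two haploid yeast populations carry antibody and antigen on their surface. Mating (16 h, 30 °C) was followed by selection of diploids and sequencing of their barcodes. The ratio of observed to expected reads was calibrated, replicate by replicate, on BCL2-family standards whose Kd was known from biolayer interferometry. There are three technical replicates.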

Changes read parent residue, position, new residue, counted from the first residue of the VL shown. Values are log10 of the apparent Kd in nM; lower means stronger binding. Where no diploid with the target was found in that replicate, the entry reads "ND": below detection, most likely a poor binder, though not proof of it.

changes	log10 Kd (nM) by replicate	empty controls
S33C E61L H98V	4.42 / 4.12 / ND	2 of 9 (3.90)
Q27P R34L	0.54 / 0.67 / 0.71	0 of 9
S25I Q27Y E61M	1.28 / 1.35 / 1.73	1 of 9 (3.04)
L30Y S38G T59A	ND / ND / ND	1 of 9 (3.51)
S28W V29I T59K	3.67 / 2.81 / 3.38	1 of 9 (5.25)
S26D R99W L100N	ND / ND / ND	0 of 9
S58H Q96L	4.18 / 2.27 / 4.21	1 of 9 (4.26)
S26G E32M S33R	ND / ND / ND	0 of 9
A40K Y97H P101L	ND / ND / ND	2 of 9 (3.30)
K24C T59H Q96V	ND / ND / ND	0 of 9
A40T S58I S103G	6.01 / 3.86 / 4.65	5 of 9 (4.33)
K24E S62N S103M	1.62 / 1.70 / 1.76	3 of 9 (4.21)
Y31E T59N L100D	1.56 / 1.34 / 1.13	1 of 9 (4.01)
Q27F V39C S103T	ND / ND / ND	0 of 9
S38F Y97G L102E	ND / ND / ND	0 of 9
Q27K T59D H98R	4.83 / 3.17 / 4.24	5 of 9 (4.96)
S33A N37L T59D	3.82 / 3.57 / 4.21	7 of 9 (4.88)
W56H T59P	ND / ND / 3.64	5 of 9 (4.60)
Y31M A40E S62N	ND / ND / ND	0 of 9
W56P Q95A	4.33 / 3.03 / 3.85	3 of 9 (5.00)
N35Y R60Y S62P	ND / ND / ND	3 of 9 (4.21)
E32R Q96K P101K	ND / 4.60 / ND	1 of 9 (2.69)
R34Q R60F Q95G	5.11 / ND / ND	3 of 9 (4.45)
Y31R R34T A57T	2.61 / ND / ND	1 of 9 (2.73)
S25E Q96Y R99Q	3.29 / 4.12 / ND	1 of 9 (4.65)
S28F V29K V39L	ND / ND / ND	0 of 9
V29H S38V P101Q	ND / 3.79 / ND	0 of 9
N35Q H98D	1.68 / 1.64 / 1.77	7 of 9 (4.34)
K24G L30R E32V	2.81 / 3.77 / 2.79	2 of 9 (4.00)
N35F K36N	1.13 / 1.26 / 1.36	3 of 9 (4.33)
N35T N37P A40F	5.59 / ND / 5.66	2 of 9 (3.86)
S33R S38G S103Y	ND / ND / ND	1 of 9 (4.25)
S38R R60N S103G	ND / ND / ND	4 of 9 (3.88)
S33A N35I R60Q	ND / ND / ND	0 of 9
N37Q W56N S62V	0.55 / 0.69 / 0.62	4 of 9 (5.26)
Y31M Q95C L102R	1.90 / 1.99 / 2.20	4 of 9 (4.49)
A40F T59G S103V	ND / ND / ND	0 of 9
V39L H98A S103Y	2.64 / 2.24 / 2.81	3 of 9 (4.92)
S26L Q27D E32Q	1.10 / 1.17 / 1.17	2 of 9 (4.34)
V39N T59D P101R	4.27 / 5.45 / 5.40	6 of 9 (4.54)
N37F S38M Q95P	ND / ND / ND	0 of 9
V29T K36C N37M	ND / ND / ND	0 of 9
K24C W56T R99G	1.73 / 1.70 / 2.04	1 of 9 (4.56)
Y97N L102G S103P	1.79 / 1.64 / 1.83	2 of 9 (4.24)
S26K Y31G A57T	1.48 / 1.42 / 0.87	0 of 9
S38A A57T S103Y	ND / ND / ND	0 of 9

Three control strains display no target. For library AAYL50, 18% of the pairings with them gave a signal, with a median of 4.19 and one signal in twenty below 2.99, so weak values seen in few replicates may be background. The control count says in how many pairings with the empty strains this scFv gave a signal, with their mean in brackets.

From the AlphaSeq antibody data of Engelhart et al. 2022 (doi:10.1038/s41597-022-01779-4), copy in the FLAb collection.